Values of other authors as cited in article PMC3152630 (Pharmaceutical research, 2011).

Conditions: previous studies using microneedles; ref [21],[25]; cited from earlier work

Insulin
plasma insulin delivered using microneedles: 0.2 to 1.2 ng/mL
